Compound activity: PubChem BioAssay, Broad Institute
The list is not random: actives were taken first. Their share in the collection is about 1.3%.
LGR2 antag: inhibitors of bursicon-induced LGR2 CRE-luciferase signal, primary screen, cell-based, HEK293, CRE-luciferase reporter, bursicon stimulation; Drosophila bursicon receptor LGR2 (rickets); AID 720647, 2013; inhibition, % at 9.99 µM; bursicon-stimulated, 4 h; hit rate 0.35% among 380,000;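 active = drop in luminescence signal, shown as inhibition above about 50% in the replicate tests, limit read from the data, passing the limit was not always enough; inconclusive = probably only some replicates passing the limit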;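 note: agonist challenge used bursicon conditioned medium at about half maximal strength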
Yeast UUG start: modulators of yeast start codon fidelity, primary screen, whole organism, S. cerevisiae, single point, plate reader; S. cerevisiae UUG-firefly luciferase reporter, luminescence/redox ratio; activity score, % at 18.7 µM; 0.13% of 350,000 active; AID 602363, 2012;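 active = replicate mean at a twofold rise or more, about +100% in these data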;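 also: firefly luciferase made from a UUG start codon reports start codon fidelity; reporter light over untreated wells divided by growth signal over untreated wells; some hits fall short of that in this replicate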
PglD inh: C. jejuni PglD acetyltransferase inhibitors, primary screen, biochemical, DTNB colorimetric, single point. hit rate 0.098% among 360,000. purified PglD enzyme, DTNB colorimetric CoA detection. UDP-N-acetylbacillosamine N-acetyltransferase PglD (Campylobacter jejuni). inhibition, % at 12.5 µM. AID 602405, 2012; in the data active = inhibition above about 16%, passing the limit was not always enough; inconclusive = no clear call, values can overlap the other calls
EWS-Fli inh: EWS/Fli-driven NR0B1 reporter inhibitors, primary screen, A673 cells, NR0B1 luciferase, luminescence, MLPCN library. inhibition, % at 12.6 µM. hit rate 0.67% among 350,000. viability-normalised;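 active = mean inhibition of at least 50% after viability correction, with every replicate also passing that limit; inconclusive = mean reaches 50% but only one of two replicates passes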;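 note: firefly luciferase signal divided by Alamar Blue viability fluorescence both relative to DMSO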
CFTR F508del cor: F508del CFTR correction, initial screen, CFBE line, single point; hit rate 0.36% among 350,000; CFBE cells, YFP halide quenching; stimulated with forskolin plus potentiator P3; % fluorescence drop versus neutral controls; AID 720511, 2013; activity (quench increase), % at 7.58 µM;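 active = mean added fluorescence quench of at least 8% versus neutral control, with both replicates also reaching 8%; inconclusive = only one of the mean or replicate conditions met; inactive = mean below 8% and not both replicates reaching 8%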;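 note: cells transiently co-express mutant CFTR-F508del with the halide-sensitive YFP; corrector assay measuring rescue of mutant channel to the surface after 24 h compound exposure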
miR122 inh: miR-122 Renilla sensor signal increase in Huh7, primary screen, miR-122 inhibitor project, cell-based, single point, plate reader. Huh7 miR-122 Renilla luciferase sensor, 48 h; neutral wells = 0, positive control = 100. activation (reporter increase), % at 12.5 µM. hit rate 0.3% among 340,000;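 active = mean replicate activation score at least 90 and every replicate individually at or above 90; inconclusive = only one of the two criteria met; inactive = neither criterion met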;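 note: higher luciferase means less miR-122 activity so hits act as miR-122 inhibitors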
Numbers stand for hits; 0 = inactive; ? = inconclusive; - = not tested or not shown.

SMILES	LGR2 antag	Yeast UUG start	PglD inh	EWS-Fli inh	CFTR F508del cor	miR122 inh
CC(=O)OCC(=O)NCCCOc1cccc(CN2CCCCC2)c1	0	0	0	0	8.3	0
O=C(OCc1cccc(Cl)c1)c1cc([N+](=O)[O-])ccc1N1CCOCC1	0	0	0	0	0	0
O=C(OCc1ccc(Br)cc1)c1cc([N+](=O)[O-])ccc1N1CCOCC1	0	0	0	62	8.4	0
O=C(c1ccc(Cl)cc1)c1cc([N+](=O)[O-])ccc1N1CCOCC1	0	-	-	59	0	-
O=C(c1ccccc1)c1cc([N+](=O)[O-])ccc1N1CCOCC1	0	0	0	-	-	0
O=C(c1ccc(Br)cc1)c1cc([N+](=O)[O-])ccc1N1CCOCC1	0	-	-	0	12	-
Cc1ccc(C(=O)c2cc([N+](=O)[O-])ccc2N2CCCCC2)cc1	0	-	-	-	-	-
CC1CCCN(c2ccc([N+](=O)[O-])cc2C(=O)c2ccccc2)C1 (configuration not stated)	0	-	-	59	-	-
Cc1ccccc1-c1ccc2c(c1)O[C@@H](CN(C)C)[C@@H](C)CN([C@H](C)CO)S2(=O)=O	0	0	0	0	0	0
COC(CNC(=O)Cc1c(C)nc2c(-c3ccccc3)c(C)nn2c1C)OC	0	-	-	0	0	-
COc1ccc(S(=O)(=O)Nc2cc3c(cc2C(C)=O)OCO3)cc1	0	-	-	55	12	-
COc1cc(NS(=O)(=O)c2cc(C)ccc2OC)c(OC)cc1Cl	-	0	0	-	-	0
COc1ccc(OC)c(NS(=O)(=O)c2ccc(N3CCCC3=O)cc2)c1	0	0	0	-	-	120
CCc1ccc(OC)c(S(=O)(=O)Nc2ccccc2C)c1	0	0	0	0	0	115
COc1ccc(CCNS(=O)(=O)c2ccc(N3CCCC3=O)cc2)cc1	0	0	0	-	-	0
COc1ccc(C)cc1S(=O)(=O)Nc1cc(Cl)ccc1Cl	0	0	0	-	-	215
COc1ccc(C)cc1S(=O)(=O)Nc1ccccc1C	-	0	0	-	-	0
COc1ccc(S(=O)(=O)Nc2cc(Cl)ccc2OC)cc1	0	0	0	-	-	138
COc1ccc(C2C(O)C(c3c[nH]c4ccccc34)=NN2C(=O)CCl)cc1 (configuration not stated)	0	0	0	62	0	0
O=C(Nc1ccn(CCCNC2CCN(Cc3ccccc3)CC2)c(=O)n1)OCc1ccccc1	0	0	0	0	9.0	0
O=C(Nc1ccn(CCCNCCN2CCOCC2)c(=O)n1)OCc1ccccc1	0	0	0	0	0	0
C[C@@H]1CCCCO[C@@H](CN(C)C(=O)Nc2cccc3ccccc23)[C@H](C)CN([C@@H](C)CO)C(=O)c2cc(NC(=O)CCCN(C)C)ccc2O1	0	0	0	0	0	0
O=S(=O)(NCCC1=CCCCC1)c1ccccc1Br	0	0	0	0	0	140
O=S(=O)(NCCC1=CCCCC1)c1ccccc1Cl	0	0	0	0	0	?
COc1ccc(C)cc1S(=O)(=O)NCCC1=CCCCC1	0	0	0	0	0	93
SMILES	LGR2 antag	Yeast UUG start	PglD inh	EWS-Fli inh	CFTR F508del cor	miR122 inh
O=C(CC1(O)C(=O)Nc2ccc(Br)cc21)c1ccc2c(c1)OCO2 (configuration not stated)	-	0	0	-	-	0
CCOc1ccccc1CNC(=O)C1CCN(c2nnc(C)c3c(C)n(-c4ccc(C)cc4)nc23)CC1	0	0	0	59	0	0
CCCC(=O)NC(=S)Nc1ccc(S(=O)(=O)Nc2ccc(OCC)cc2)cc1	0	0	0	-	-	181
CCOc1ccc(NS(=O)(=O)c2ccc(NC(=S)NC(=O)CC(C)C)cc2)cc1	-	-	-	-	-	166
C=C(C)CN(CC)C(=O)COc1ccc(S(=O)(=O)Nc2ccc(OC)cc2)cc1	-	0	0	-	-	186
CCOc1ccc(S(=O)(=O)NCCC(=O)NCC(c2cccs2)N(C)C)cc1 (configuration not stated)	0	0	0	0	0	0
COc1cc2cc(CCOC(=O)c3ccc(F)cc3)oc(=O)c2cc1OC	0	0	0	0	0	0
